Test results as given in US8026252B2 (priority 2005, dated 2011).
“And” between values parts separate entries of the source, which are not always exact repeats. Equal values may be shown once.

Chains of the proteins cited; added tags and fusions are not shown.
UniProt P35372, whole entry: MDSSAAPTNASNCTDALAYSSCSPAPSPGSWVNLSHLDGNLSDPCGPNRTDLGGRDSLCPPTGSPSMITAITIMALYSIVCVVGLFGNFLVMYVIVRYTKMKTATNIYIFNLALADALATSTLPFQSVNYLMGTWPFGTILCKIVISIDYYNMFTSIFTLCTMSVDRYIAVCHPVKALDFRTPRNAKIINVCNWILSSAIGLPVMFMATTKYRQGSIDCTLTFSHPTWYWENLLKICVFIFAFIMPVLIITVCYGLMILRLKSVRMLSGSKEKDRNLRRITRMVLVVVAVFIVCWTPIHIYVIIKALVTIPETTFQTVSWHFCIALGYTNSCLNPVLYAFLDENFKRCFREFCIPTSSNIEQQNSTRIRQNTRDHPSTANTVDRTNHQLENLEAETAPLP

Target: T1, human μ opioid receptor (Homo sapiens, UniProt P35372)
T1 construct: expressed in transfected cells
Assay type: binding
Details: read-out: [3H]DAMGO (μ)

Substance	Ki
(±)-3-(Cyclopropylmethyl)-1,2,3,4,5,6-hexahydro-cis-6,11-dimethyl-N-(2-[1,1′-biphenyl]-4-ylethyl)-2,6-methano-3-benzazocine-8-carboxamide [Example 15]	0.048 ± 0.0014 nM
(+)-3-(Cyclopropylmethyl)-1,2,3,4,5,6-hexahydro-cis-6,11-dimethyl-N-(2-[1,1′-biphenyl]-4-ylethyl)-2,6-methano-3-benzazocine-8-carboxamide [Example 17]	7.8 nM and 6.4 nM
